Consider two compounds from patent US8921397B2, “Benzofurane-piperidine compounds” (Hoffmann-La Roche Inc., priority 2011, dated 2014).

Chains of the proteins cited; added tags and fusions are not shown.
UniProt P14416, whole entry: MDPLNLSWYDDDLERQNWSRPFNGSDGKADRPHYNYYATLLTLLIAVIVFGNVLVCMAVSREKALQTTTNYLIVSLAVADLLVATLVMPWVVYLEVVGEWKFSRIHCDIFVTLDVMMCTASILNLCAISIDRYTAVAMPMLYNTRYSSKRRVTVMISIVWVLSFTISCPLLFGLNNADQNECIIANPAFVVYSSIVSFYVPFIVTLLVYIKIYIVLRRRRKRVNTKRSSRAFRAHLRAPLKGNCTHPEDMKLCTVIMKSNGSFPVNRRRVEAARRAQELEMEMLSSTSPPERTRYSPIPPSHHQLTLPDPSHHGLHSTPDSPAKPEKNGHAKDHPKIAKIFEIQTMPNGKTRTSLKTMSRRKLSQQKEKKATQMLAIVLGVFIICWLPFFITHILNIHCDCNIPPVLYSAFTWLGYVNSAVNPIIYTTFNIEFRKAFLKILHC
UniProt P35462, whole entry: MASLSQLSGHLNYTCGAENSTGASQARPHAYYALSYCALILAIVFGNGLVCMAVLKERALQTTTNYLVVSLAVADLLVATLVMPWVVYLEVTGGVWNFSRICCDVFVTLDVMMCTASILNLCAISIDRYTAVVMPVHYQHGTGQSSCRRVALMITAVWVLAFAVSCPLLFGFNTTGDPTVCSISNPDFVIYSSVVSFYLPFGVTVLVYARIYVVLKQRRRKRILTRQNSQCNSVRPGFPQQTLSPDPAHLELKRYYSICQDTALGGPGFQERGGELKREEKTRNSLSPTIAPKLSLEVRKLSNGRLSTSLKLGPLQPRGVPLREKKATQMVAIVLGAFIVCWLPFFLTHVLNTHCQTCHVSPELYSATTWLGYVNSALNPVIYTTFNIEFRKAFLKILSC

One assay deals with human D2 receptor (Homo sapiens (Human), UniProt P14416). Kind of assay: Radioligand binding ([3H]-spiperone) to human D2 receptor, HEK293 EBNA membranes. The following applies: HEK293 EBNA cells expressing human D2 receptor. On the procedure: (§1) The ability of the compounds to bind to the 5-HT2A, D3 and D2 receptors was determined using radioligand binding to cloned receptors selectively expressed in HEK-293 EBNA cells.
(§2) HEK293 EBNA cells were transiently transfected with expression plasmids encoding for the human D2 or D3 or for the human 5-HT2A receptor, respectively. The cells were harvested 48 h post-transfection, washed three times with cold PBS and stored at −80° C. prior to use. The pellet was suspended in cold 50 mM Tris-HCl buffer containing 10 mM EDTA (pH 7.4) and was homogenized with a Polytron (Kinematica AG, Basel, Switzerland) for 20-30 sec at 12.000 rpm. […] The protein content of this homogenate was determined with the Bio-Rad (Bradford) Protein Assay (Biorad Laboratories GmbH, München, Germany) according to the instructions of the manufacturer using gamma globulin as the standard. […]
(§3) The binding affinity (Ki) of the compounds was determined using radioligand binding.
(§4) Membranes were incubated in a total volume of 200 μl with a fixed concentration of radioligand (final concentration approximately 0.7 nM [^3H]-spiperone for D2, 0.5 nM [^3 H]-spiperone for D3, and 1.1 nM [^3H]-ketanserin for 5-HT2A) and ten concentrations of test compound in ranging between 10 μM-0.1 nM for 1 h at RT. […] The nonspecific binding was determined with equally composed reaction mixtures in the presence of 10 μM unlabelled spiperone. […]

A further assay addresses human D3 receptor (Homo sapiens (Human), UniProt P35462). Briefly: Radioligand binding ([3H]-spiperone) to human D3 receptor, HEK293 EBNA membranes. The following applies: HEK293 EBNA cells expressing human D3 receptor. The procedure:
as §1, §2, §3, §4

Turning to `O=C(CC1COCCO1)N[C@H]1CC[C@H](CCN2CCC(c3coc4ccccc34)CC2)CC1` (mixture of isomers) [Example 8, trans-N-{4-[2-(4-Benzofuran-3-yl-piperidin-1-yl)-ethyl]-cyclohexyl}-(RS)-2-[1,4]dioxan-2-yl-acetamide], the Ki on human D2 receptor came out at 85.9 nM.

Take `O=C(N[C@H]1CC[C@H](CCN2CCC(c3coc4ccccc34)CC2)CC1)C1CCOC1` (mixture of isomers) [Example 17, (RS)-Tetrahydro-furan-3-carboxylic acid trans-{4-[2-(4-benzofuran-3-yl-piperidin-1-yl)-ethyl]-cyclohexyl}-amide]: the inhibition constant Ki on human D3 receptor came out at 2.22 nM.
